AlphaSeq binding of Ab-14 heavy chain variants to a spike HR2 peptide

Source: Li et al. 2023 (doi:10.1038/s41467-023-39022-2), MIT Lincoln Laboratory and A-Alpha Bio; data file from the FLAb repository.

Target: peptide PDVDLGDISGINAS, taken from heptad repeat 2 (HR2) of SARS-CoV-2 spike.

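Phage display of a naive human antibody library on the peptide gave the parent. This is the validation round: designs drawn from the data on random variants, tested in the same kind of assay. Their group label is 14H_En_Gen (En: ensemble of fine-tuned language models; Gen: genetic algorithm). In AlphaSeq, yeast of one mating type display the scFv and yeast of the other type display the target. The frequency of each diploid, read from paired DNA barcodes, reflects how well the two displayed proteins bind. A regression on co-assayed BCL2-family reference pairs converts the normalised counts of each replicate to an apparent Kd. Mating was done six times.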

Parent: Ab-14, a human scFv built as VH, three GGGGS repeats, VL. Only the CDRs of the heavy chain vary.
VH: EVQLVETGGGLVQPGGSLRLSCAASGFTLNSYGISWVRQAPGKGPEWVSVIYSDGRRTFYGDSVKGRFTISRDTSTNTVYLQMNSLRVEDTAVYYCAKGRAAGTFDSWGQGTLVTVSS
VL: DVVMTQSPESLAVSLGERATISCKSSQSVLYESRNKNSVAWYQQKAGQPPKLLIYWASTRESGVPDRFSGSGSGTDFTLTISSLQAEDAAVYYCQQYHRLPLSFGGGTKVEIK

Each variant's VH is given in full. The read-out is the apparent dissociation constant on a log10 scale (nM): the lower, the stronger. In the paper, a design with two or fewer of six values counts as a poor binder. Of ten entries with the parent sequence, four were seen in most replicates (averages 0.34 to 2.37), three in one and three in none, so single entries are noisy. The range of this assay differs from that of the first round, and the authors advise against merging the two. Nonspecific signal, from three strains lacking the peptide, appeared in 1% of pairings of all heavy chain designs, centred on 2.08 (5% of these signals below 0.84); values are not corrected for it. Also given: how often the same scFv was detected with the empty control strains, with their mean in brackets.

VH	replicates, log10 nM	signal with controls
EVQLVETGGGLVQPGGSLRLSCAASGFDLDEYGISWVRQAPGKGPEWVSVIYADGVRTAYIDSVKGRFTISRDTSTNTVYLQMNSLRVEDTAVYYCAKGNVAGTFDVWGQGTLVTVSS	-0.52 / -1.01 / -0.20 / -0.54 / -1.07 / -1.04	0 of 18
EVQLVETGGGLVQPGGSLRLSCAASGFDLNEYGISWVRQAPGKGPEWVSVIYADGQRTAYSDSVKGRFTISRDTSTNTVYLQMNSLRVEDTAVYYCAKGETAGTFDVWGQGTLVTVSS	-0.55 / -0.59 / -1.38 / -1.45 / -1.55 / -0.60	0 of 18
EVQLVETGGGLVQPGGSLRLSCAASGFDLNEYGISWVRQAPGKGPEWVSVIYADGVRKAYADSVKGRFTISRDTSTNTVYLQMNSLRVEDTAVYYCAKGSNAGTFDVWGQGTLVTVSS	-0.53 / -0.38 / -0.45 / -0.70 / -0.56 / -0.31	1 of 18 (3.16)
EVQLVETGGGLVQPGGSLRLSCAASGFDLDEYGISWVRQAPGKGPEWVSVIYADGVRTAYSDSVKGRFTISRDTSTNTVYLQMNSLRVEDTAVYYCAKGNNAGTFDVWGQGTLVTVSS	-0.78 / -0.92 / -2.01 / -1.00 / -1.47 / -1.07	0 of 18
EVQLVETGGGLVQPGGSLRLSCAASGFDLEDYGISWVRQAPGKGPEWVSVIYADGKRTAYADSVKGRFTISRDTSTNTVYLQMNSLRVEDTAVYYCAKGENAGTFDVWGQGTLVTVSS	0.61 / -0.28 / 0.03 / -0.40 / -0.14 / 0.64	0 of 18
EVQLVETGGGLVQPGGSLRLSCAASGFDLNEYGISWVRQAPGKGPEWVSVIYADGMRTAYADSVKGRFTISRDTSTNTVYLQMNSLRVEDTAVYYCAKGKNAGTFDIWGQGTLVTVSS	-0.46 / -0.91 / -0.62 / -0.27 / -0.97 / -0.97	0 of 18
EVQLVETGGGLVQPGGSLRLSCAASGFDLDEYGISWVRQAPGKGPEWVSVIYADGMRTAYVDSVKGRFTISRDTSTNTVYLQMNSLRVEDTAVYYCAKGEVAGTFDVWGQGTLVTVSS	-0.45 / -0.17 / -0.93 / -1.39 / -0.71 / -0.98	0 of 18
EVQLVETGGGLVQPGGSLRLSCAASGFDLNEYGISWVRQAPGKGPEWVSVIYADGMRTAYSDSVKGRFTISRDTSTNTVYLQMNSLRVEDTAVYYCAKGNNAGTFDVWGQGTLVTVSS	2.09 / 0.45 / -0.33 / 1.90 / 0.43 / 1.10	0 of 18
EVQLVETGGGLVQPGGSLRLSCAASGFDLNEYGISWVRQAPGKGPEWVSVIYADGRRTAYADSVKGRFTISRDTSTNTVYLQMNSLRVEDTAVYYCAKGEVAGTFDVWGQGTLVTVSS	0.37 / -0.16 / 0.11 / -0.18 / 0.63 / -0.17	0 of 18
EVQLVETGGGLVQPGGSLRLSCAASGFDLNEYGISWVRQAPGKGPEWVSVIYADGVRKAYADSVKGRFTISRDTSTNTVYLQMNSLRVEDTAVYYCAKGNNAGTFDIWGQGTLVTVSS	-0.41 / -0.17 / -0.61 / -0.71 / -0.24 / -0.42	1 of 18 (1.95)
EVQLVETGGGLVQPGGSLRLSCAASGFDLEDYGISWVRQAPGKGPEWVSVIYADGMRTAYADSVKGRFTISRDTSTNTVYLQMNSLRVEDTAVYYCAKGTNAGTFDVWGQGTLVTVSS	-0.40 / -0.74 / -0.11 / -0.28 / -0.76 / -0.06	0 of 18
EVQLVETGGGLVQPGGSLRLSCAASGFDLDEYGISWVRQAPGKGPEWVSVIYADGTRTAYADSVKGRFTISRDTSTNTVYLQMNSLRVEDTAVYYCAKGNVAGTFDVWGQGTLVTVSS	-0.27 / -0.27 / -0.36 / -0.40 / -0.46 / -0.48	1 of 18 (1.91)
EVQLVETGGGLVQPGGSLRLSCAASGFDLNEYGISWVRQAPGKGPEWVSVIYADGVRTVYADSVKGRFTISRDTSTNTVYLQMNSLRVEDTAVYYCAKGNNAGTFDVWGQGTLVTVSS	1.01 / -0.12 / -0.54 / -0.53 / -0.28 / 0.43	0 of 18
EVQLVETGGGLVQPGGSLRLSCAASGFDLNEYGISWVRQAPGKGPEWVSVIYADGKRTAYADSVKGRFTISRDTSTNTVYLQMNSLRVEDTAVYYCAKGTVAGTFDLWGQGTLVTVSS	-0.49 / -0.32 / -0.41 / -0.57 / -0.28 / -0.46	0 of 18
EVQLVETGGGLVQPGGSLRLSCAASGFDLNEYGISWVRQAPGKGPEWVSVIYADGMRTAYSDNVKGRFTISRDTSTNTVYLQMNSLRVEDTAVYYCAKGNVAGTFDVWGQGTLVTVSS	0.15 / 0.02 / -0.01 / -0.17 / 0.10 / 0.16	0 of 18
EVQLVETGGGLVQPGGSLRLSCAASGFDLNEYGISWVRQAPGKGPEWVSVIYADGVRTAYSDSVKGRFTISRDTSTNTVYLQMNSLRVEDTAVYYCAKGQVAGTFDIWGQGTLVTVSS	0.13 / -0.41 / -0.37 / -0.53 / -0.56 / -0.24	0 of 18
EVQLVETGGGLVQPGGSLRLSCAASGFDLNEYGISWVRQAPGKGPEWVSVIYADGMRTAYSDSVKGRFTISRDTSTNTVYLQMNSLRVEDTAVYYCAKGENAGTFDIWGQGTLVTVSS	-0.29 / -0.16 / -0.50 / -0.51 / -0.36 / -0.27	1 of 18 (3.78)